According to US20090208979A1, “Method for identifying antipsychotic drug candidates” (priority 2008, published 2009):
Like-named read-outs stand apart in the source and are kept apart here.

Legend:
GABAAβ3 mRNA = details: rats, 14 days daily IP (haloperidol 1 mg/kg, fluvoxamine 10 mg/kg, clozapine 10 mg/kg); frontal cortex; vs control
GABAAβ2/β3 subunit = details: primary cortical neuronal cell cultures

| Compound | GABAAβ3 mRNA level (GABAAβ3 mRNA) | increase of GABAAβ2/β3 subunit phosphorylation compared to controls (GABAAβ2/β3 subunit; acute treatment, 15 minutes) | increase of GABAAβ2/β3 subunit phosphorylation compared to controls (GABAAβ2/β3 subunit; chronic treatment, 7 days) |
| --- | --- | --- | --- |
| COCCCC/C(=N\OCCN)c1ccc(C(F)(F)F)cc1 [fluvoxamine] | increased significantly | did not alter | did not alter |
| O=C(CCCN1CCC(O)(c2ccc(Cl)cc2)CC1)c1ccc(F)cc1 [haloperidol] | significantly increased | did not alter | did not alter |
| CN1CCN(C2=Nc3cc(Cl)ccc3Nc3ccccc32)CC1 [clozapine] |  | 169% | 37% |
